Like-named read-outs stand apart in the source and are kept apart here.
Details: rat, tail vein IV

Ratio = brain concentration/plasma concentration of acetaminophen (0.50 h): 0.689
Ratio = brain concentration/plasma concentration of acetaminophen (1 h): 1.00
Ratio = brain concentration/plasma concentration of acetaminophen (2 h): 0.649
Ratio = brain concentration/plasma concentration of acetaminophen (4 h): 0.419
Substance: acetaminophen

From US8722864B2 (Nutek Pharma Ltd., priority 2010, dated 2014)
